The source of these data is patent US20260384450A1, “MACROCYCLIC AMINOPYRIDINE COMPOUNDS AS EGFR INHIBITORS” (published 2026).

Sequences of proteins named here, by UniProt entry; tags and fusion partners are left off. A change or cut given only in a name is not applied to a line headed by its entry. A line that says so, or that is headed by a name, gives the form on record, which may keep a tag or linker. Residues count along the entry.
UniProt P00533, 25-1210 limits assumed: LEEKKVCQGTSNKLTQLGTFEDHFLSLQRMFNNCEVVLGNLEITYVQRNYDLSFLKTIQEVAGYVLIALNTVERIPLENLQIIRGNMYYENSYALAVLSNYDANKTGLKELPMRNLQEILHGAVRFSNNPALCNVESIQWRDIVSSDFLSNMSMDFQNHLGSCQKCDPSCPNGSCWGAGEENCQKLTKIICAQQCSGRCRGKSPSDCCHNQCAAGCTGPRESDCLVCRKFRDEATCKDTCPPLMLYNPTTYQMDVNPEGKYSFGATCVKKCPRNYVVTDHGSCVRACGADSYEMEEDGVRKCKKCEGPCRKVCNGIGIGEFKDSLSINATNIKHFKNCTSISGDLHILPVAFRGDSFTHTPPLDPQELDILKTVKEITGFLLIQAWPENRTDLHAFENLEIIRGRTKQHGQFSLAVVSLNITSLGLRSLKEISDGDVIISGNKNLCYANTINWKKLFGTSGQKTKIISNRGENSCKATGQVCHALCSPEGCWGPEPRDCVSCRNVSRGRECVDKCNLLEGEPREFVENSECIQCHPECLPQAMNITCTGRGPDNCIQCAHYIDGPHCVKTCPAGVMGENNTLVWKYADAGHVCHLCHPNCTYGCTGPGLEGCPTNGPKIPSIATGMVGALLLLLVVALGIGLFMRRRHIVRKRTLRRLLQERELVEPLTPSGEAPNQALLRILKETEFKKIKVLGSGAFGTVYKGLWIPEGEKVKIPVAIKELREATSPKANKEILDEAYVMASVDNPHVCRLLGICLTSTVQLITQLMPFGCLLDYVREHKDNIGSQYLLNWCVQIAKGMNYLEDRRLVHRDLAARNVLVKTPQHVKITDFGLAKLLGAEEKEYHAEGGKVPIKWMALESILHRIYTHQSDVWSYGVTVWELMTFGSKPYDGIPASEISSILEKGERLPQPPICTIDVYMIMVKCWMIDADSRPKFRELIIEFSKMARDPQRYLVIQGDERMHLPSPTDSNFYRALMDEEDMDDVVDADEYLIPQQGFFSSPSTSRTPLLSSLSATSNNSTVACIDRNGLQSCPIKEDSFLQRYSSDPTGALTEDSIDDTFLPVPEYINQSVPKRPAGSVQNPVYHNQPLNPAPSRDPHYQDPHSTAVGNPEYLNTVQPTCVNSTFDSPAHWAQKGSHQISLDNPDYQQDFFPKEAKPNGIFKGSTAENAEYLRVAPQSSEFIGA
UniProt P00533, 25-1210 C797S/L858R limits assumed: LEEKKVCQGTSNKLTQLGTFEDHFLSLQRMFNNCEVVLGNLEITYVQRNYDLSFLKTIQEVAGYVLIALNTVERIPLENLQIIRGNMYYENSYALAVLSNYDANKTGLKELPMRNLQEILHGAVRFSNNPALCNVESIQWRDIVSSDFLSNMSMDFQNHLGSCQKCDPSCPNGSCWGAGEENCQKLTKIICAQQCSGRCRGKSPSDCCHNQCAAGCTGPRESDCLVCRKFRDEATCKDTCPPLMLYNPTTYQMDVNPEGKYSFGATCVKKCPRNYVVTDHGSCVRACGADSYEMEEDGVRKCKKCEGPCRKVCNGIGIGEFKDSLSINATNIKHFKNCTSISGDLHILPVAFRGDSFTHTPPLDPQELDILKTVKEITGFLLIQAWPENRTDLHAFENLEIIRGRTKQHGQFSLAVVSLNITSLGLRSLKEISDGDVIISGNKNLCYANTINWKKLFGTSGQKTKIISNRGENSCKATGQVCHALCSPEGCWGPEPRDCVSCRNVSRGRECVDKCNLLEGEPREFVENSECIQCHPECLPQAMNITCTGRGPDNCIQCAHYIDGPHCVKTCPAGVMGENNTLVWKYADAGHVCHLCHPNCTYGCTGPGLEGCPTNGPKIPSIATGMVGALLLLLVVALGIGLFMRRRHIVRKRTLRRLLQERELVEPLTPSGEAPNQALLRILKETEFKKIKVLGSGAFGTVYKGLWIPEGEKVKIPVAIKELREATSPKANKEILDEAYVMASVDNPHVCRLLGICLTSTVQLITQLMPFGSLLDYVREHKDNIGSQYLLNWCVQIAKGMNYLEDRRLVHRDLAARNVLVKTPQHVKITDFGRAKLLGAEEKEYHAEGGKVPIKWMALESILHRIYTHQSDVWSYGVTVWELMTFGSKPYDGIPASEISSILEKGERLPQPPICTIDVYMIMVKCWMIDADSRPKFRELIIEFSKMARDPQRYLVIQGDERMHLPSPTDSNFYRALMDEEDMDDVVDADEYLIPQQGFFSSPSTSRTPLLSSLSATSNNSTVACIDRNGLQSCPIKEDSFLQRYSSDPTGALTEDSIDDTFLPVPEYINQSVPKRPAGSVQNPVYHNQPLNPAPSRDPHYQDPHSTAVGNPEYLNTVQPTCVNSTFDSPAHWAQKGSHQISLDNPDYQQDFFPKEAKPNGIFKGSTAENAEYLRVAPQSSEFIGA
UniProt P00533, 25-1210 T790M/C797S/L858R limits assumed: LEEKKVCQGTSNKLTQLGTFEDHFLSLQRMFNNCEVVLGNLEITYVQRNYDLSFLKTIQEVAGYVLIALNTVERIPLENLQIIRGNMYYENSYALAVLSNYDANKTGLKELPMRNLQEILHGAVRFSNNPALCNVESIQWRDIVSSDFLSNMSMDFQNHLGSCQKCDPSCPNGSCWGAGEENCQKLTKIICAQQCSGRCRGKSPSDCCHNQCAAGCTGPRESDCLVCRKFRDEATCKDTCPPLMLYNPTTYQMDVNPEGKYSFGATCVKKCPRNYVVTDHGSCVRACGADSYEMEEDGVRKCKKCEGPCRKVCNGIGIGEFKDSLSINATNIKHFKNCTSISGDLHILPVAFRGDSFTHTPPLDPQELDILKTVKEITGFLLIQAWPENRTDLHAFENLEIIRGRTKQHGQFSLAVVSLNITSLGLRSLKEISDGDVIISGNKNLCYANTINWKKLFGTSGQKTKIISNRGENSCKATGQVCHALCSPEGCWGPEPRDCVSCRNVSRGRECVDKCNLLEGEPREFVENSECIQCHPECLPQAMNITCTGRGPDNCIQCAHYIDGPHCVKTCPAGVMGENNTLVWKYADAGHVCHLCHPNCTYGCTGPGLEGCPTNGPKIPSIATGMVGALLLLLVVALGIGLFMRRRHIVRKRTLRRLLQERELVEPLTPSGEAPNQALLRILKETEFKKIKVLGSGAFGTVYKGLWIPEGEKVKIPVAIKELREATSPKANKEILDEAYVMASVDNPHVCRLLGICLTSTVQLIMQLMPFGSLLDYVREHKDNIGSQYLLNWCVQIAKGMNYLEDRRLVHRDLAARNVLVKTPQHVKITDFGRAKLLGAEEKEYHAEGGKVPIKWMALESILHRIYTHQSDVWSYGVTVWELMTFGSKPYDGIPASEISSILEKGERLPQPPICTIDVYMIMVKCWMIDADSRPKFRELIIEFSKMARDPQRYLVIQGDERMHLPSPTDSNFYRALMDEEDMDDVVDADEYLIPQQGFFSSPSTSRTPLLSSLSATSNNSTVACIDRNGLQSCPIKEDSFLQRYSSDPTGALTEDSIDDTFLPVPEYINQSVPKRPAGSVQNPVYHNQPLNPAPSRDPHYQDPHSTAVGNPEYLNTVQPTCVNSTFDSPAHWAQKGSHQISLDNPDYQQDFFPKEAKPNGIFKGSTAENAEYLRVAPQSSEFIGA
UniProt P00533, with tags, fused parts or gaps DEL746-750/C797S limits assumed: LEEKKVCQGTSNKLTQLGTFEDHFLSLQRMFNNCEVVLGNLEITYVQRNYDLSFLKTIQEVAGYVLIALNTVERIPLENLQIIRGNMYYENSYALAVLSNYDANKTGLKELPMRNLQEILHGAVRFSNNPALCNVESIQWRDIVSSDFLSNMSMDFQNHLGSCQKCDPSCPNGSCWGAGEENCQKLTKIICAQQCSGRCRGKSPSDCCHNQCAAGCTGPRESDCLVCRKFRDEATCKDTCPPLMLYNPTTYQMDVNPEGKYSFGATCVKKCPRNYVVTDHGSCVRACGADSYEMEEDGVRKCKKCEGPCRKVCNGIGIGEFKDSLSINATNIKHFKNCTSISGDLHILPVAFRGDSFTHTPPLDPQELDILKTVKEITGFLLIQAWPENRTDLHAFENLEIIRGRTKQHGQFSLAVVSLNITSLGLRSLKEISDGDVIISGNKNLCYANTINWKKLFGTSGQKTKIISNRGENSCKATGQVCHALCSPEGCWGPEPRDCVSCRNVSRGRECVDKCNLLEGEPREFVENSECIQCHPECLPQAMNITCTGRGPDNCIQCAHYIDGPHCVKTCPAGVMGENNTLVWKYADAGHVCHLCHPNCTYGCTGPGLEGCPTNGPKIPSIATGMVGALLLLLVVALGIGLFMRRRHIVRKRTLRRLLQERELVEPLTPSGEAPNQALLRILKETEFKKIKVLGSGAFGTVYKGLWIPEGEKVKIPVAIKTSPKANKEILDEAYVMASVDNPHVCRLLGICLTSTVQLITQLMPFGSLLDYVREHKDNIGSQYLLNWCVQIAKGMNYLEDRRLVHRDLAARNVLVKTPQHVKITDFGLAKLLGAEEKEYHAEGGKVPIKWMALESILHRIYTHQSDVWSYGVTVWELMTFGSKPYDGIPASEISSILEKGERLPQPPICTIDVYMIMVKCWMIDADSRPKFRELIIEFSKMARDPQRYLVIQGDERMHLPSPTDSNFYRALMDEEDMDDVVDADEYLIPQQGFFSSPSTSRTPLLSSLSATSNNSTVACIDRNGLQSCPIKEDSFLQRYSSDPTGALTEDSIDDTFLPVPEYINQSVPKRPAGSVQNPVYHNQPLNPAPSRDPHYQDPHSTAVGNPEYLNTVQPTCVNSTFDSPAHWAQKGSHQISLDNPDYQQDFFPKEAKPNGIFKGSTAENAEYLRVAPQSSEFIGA
UniProt P00533, with tags, fused parts or gaps DEL746-750/T790M/C797S limits assumed: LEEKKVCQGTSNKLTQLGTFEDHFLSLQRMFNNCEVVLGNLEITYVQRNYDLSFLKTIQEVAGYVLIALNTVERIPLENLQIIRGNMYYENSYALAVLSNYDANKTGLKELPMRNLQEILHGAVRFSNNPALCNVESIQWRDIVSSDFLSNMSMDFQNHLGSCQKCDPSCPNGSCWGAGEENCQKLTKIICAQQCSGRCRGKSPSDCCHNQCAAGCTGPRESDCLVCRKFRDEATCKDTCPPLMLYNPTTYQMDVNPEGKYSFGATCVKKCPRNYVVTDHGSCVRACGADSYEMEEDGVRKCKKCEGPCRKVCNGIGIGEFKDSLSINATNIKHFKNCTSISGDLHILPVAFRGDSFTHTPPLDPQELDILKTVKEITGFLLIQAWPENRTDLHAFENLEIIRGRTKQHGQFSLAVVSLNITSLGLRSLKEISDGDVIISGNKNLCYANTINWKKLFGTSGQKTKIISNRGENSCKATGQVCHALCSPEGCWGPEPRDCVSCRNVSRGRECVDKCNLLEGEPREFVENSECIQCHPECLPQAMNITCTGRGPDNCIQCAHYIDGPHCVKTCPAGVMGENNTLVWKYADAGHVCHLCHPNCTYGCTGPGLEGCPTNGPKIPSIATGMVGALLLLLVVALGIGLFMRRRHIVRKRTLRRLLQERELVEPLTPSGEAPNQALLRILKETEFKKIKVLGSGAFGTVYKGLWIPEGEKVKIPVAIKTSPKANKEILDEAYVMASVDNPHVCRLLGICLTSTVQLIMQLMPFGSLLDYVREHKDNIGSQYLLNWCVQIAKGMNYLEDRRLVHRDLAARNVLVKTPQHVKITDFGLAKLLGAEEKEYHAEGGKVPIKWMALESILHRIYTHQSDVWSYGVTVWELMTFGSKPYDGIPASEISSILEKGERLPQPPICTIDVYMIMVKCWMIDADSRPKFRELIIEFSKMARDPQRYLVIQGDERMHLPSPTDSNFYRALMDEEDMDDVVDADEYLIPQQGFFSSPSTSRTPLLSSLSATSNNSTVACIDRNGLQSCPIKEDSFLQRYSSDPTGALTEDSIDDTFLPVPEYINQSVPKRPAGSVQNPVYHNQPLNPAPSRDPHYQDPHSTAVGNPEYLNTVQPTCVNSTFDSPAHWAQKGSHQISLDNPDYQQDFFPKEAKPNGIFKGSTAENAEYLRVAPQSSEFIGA

For one test, the target named is EGFR WT (Homo sapiens, UniProt P00533). The test is described as follows: Biochemical EGFR kinase assay (Lance Ultra TR-FRET), wildtype.
The target of test [1] is EGFR D19TMCS (del19/T790M/C797S) (Homo sapiens, UniProt P00533, C797S/DEL746-750/T790M). Nature of the test: Biochemical EGFR kinase assay (Lance Ultra TR-FRET), triple mutant del19/T790M/C797S.
The next test has as its target EGFR LRCS (L858R/C797S) (Homo sapiens, UniProt P00533, C797S/L858R). The test is described as follows: Biochemical EGFR kinase assay (Lance Ultra TR-FRET), double mutant L858R/C797S.
Another test addresses EGFR D19CS (del19/C797S) (Homo sapiens, UniProt P00533, C797S/DEL746-750). The test is described as follows: Biochemical EGFR kinase assay (Lance Ultra TR-FRET), double mutant del19/C797S.
The target of test [2] is EGFR LRTMCS (L858R/T790M/C797S) (Homo sapiens, UniProt P00533, C797S/L858R/T790M). Nature of the test: Biochemical EGFR kinase assay (Lance Ultra TR-FRET), triple mutant L858R/T790M/C797S.
Where [3] appears, read: read-out: EGFR WT IC50, ATP 1 mM.
The mark [4] stands for this setting: read-out: EGFR D19TMCS IC50, ATP 1 mM.
[5] abbreviates: read-out: EGFR D19TMCS IC50, ATP Km.
Setting [6] is: read-out: EGFR LRCS IC50, ATP 1 mM.
[7] abbreviates: read-out: EGFR LRCS IC50, ATP Km.
Where [8] appears, read: read-out: EGFR D19CS IC50, ATP 1 mM.
Where [9] appears, read: read-out: EGFR D19CS IC50, ATP Km.
[10] abbreviates: read-out: EGFR LRTMCS IC50, ATP 1 mM.
Where [11] appears, read: read-out: EGFR LRTMCS IC50, ATP Km.
The mark [12] stands for this setting: read-out: IC50, EGFR WT, 1 mM, ATP 1 mM, EGFR wildtype.
The mark [13] stands for this setting: read-out: IC50, EGFR WT, Km, ATP at Km, EGFR wildtype.
Setting [14] is: read-out: IC50, EGFR D19TMCS, Km, ATP at Km, EGFR del19/T790M/C797S.
The mark [15] stands for this setting: read-out: IC50, EGFR-LRCS, 1 mM, ATP 1 mM, EGFR L858R/C797S.
Where [16] appears, read: read-out: IC50, EGFR-LRCS, Km, ATP at Km, EGFR L858R/C797S.
Where [17] appears, read: read-out: IC50, EGFR-D19CS, 1 mM, ATP 1 mM, EGFR del19/C797S.
Setting [18] is: read-out: IC50, EGFR-D19CS, Km, ATP at Km, EGFR del19/C797S.
Setting [19] is: read-out: IC50, EGFR LRTMCS, 1 mM, ATP 1 mM, EGFR L858R/T790M/C797S.
The mark [20] stands for this setting: read-out: IC50, EGFR LRTMCS, Km, ATP at Km, EGFR L858R/T790M/C797S.

Read-outs that look alike come from different tables or passages of the source.

Regarding `Cn1ncc2c1OCCCNc1cc(ncc1-c1ccn(C(F)F)n1)Nc1ccnc-2n1`, the IC50 is greater than 1000 nM at EGFR WT (setting [3]); greater than 1000 nM at EGFR WT (read-out: EGFR WT IC50, ATP Km); less than 10 nM in test [1] (setting [4]); less than 10 nM in test [1] (setting [5]); greater than 1000 nM on EGFR LRCS (L858R/C797S) (setting [6]); 100 to 1000 nM at EGFR LRCS (L858R/C797S) (setting [7]). The IC50 on EGFR D19CS (del19/C797S) (setting [8]) was greater than 1000 nM; on EGFR D19CS (del19/C797S) (setting [9]), 100 to 1000 nM; in test [2] (setting [10]), less than 10 nM; in test [2] (setting [11]) it was less than 10 nM.
On to `CC1CNc2cc(ncc2-c2ccn(C(F)F)n2)Nc2ccnc(n2)-c2cnn(C)c2OC1` (stereo not shown), for which the IC50 was greater than 1000 nM on EGFR WT (setting [3]); 10 to 100 nM on EGFR WT (read-out: EGFR WT IC50, ATP Km); less than 10 nM in test [1] (setting [4]); less than 10 nM in test [1] (setting [5]); 100 to 1000 nM on EGFR LRCS (L858R/C797S) (setting [6]); less than 10 nM at EGFR LRCS (L858R/C797S) (setting [7]). For the same compound, the IC50 was 100 to 1000 nM on EGFR D19CS (del19/C797S) (setting [8]), 10 to 100 nM at EGFR D19CS (del19/C797S) (setting [9]), less than 10 nM in test [2] (setting [10]) and less than 10 nM in test [2] (setting [11]).
For `C[C@@H]1CCOc2c(cnn2C)-c2nccc(n2)Nc2cc(c(-c3cc(C(F)(F)F)n(C)n3)cn2)N1`, the IC50 was greater than 1000 nM at EGFR WT (setting [3]); 100 to 1000 nM on EGFR WT (read-out: EGFR WT IC50, ATP Km); 100 to 1000 nM in test [1] (setting [4]); 10 to 100 nM in test [1] (setting [5]); greater than 1000 nM at EGFR LRCS (L858R/C797S) (setting [6]); greater than 1000 nM at EGFR LRCS (L858R/C797S) (setting [7]). For the same compound, the IC50 is greater than 1000 nM on EGFR D19CS (del19/C797S) (setting [8]), greater than 1000 nM at EGFR D19CS (del19/C797S) (setting [9]), greater than 1000 nM in test [2] (setting [10]) and 10 to 100 nM in test [2] (setting [11]).
Regarding `C[C@H]1CCOc2c(cnn2C)-c2nccc(n2)Nc2cc(c(-c3ccn(C(F)F)n3)nn2)N1`, the IC50 on EGFR WT (setting [3]) is greater than 1000 nM; at EGFR WT (read-out: EGFR WT IC50, ATP Km), greater than 1000 nM; in test [1] (setting [4]), less than 10 nM; in test [1] (setting [5]) it was less than 10 nM; on EGFR LRCS (L858R/C797S) (setting [6]), greater than 1000 nM; at EGFR LRCS (L858R/C797S) (setting [7]) it was 100 to 1000 nM. Moreover, the 50% inhibitory concentration (IC50) at EGFR D19CS (del19/C797S) (setting [8]) is greater than 1000 nM; at EGFR D19CS (del19/C797S) (setting [9]), greater than 1000 nM; in test [2] (setting [10]), 10 to 100 nM; in test [2] (setting [11]) it was less than 10 nM.
For the compound `Cc1nn(C)c2c1-c1nccc(n1)Nc1cc(c(-c3ncc(S(C)(=O)=O)cn3)cn1)N[C@@H](C)CCO2`, the concentration for half-maximal inhibition (IC50) at EGFR WT (setting [12]) is greater than 1000 nM; on EGFR WT (setting [13]) it was 10 to 100 nM; in test [1] (setting [14]) it was less than 10 nM; on EGFR LRCS (L858R/C797S) (setting [15]), greater than 1000 nM; on EGFR LRCS (L858R/C797S) (setting [16]), less than 10 nM; on EGFR D19CS (del19/C797S) (setting [17]), 100 to 1000 nM. Moreover, the half-inhibitory concentration (IC50) at EGFR D19CS (del19/C797S) (setting [18]) is less than 10 nM; in test [2] (setting [19]) it was 10 to 100 nM; in test [2] (setting [20]), less than 10 nM.
`Cn1ncc2c1OCC(C)(C)CNc1cc(ncc1-c1cnc(OC3COC3)cn1)Nc1ccnc-2n1`: the IC50 is greater than 1000 nM at EGFR WT (setting [3]); 10 to 100 nM at EGFR WT (read-out: EGFR WT IC50, ATP Km); less than 10 nM in test [1] (setting [4]); less than 10 nM in test [1] (setting [5]); greater than 1000 nM at EGFR LRCS (L858R/C797S) (setting [6]); 10 to 100 nM on EGFR LRCS (L858R/C797S) (setting [7]). Moreover, the IC50 at EGFR D19CS (del19/C797S) (setting [8]) was 100 to 1000 nM; on EGFR D19CS (del19/C797S) (setting [9]), 10 to 100 nM; in test [2] (setting [10]), 10 to 100 nM; in test [2] (setting [11]), less than 10 nM.
As to `C[C@H]1CCOc2c(cnn2C)-c2nccc(n2)Nc2cc(c(-c3ncc(CN4CC(F)(F)C4)cc3F)cn2)N1`, the IC50 at EGFR WT (setting [3]) is greater than 1000 nM; at EGFR WT (read-out: EGFR WT IC50, ATP Km), 10 to 100 nM; in test [1] (setting [4]) it was less than 10 nM; in test [1] (setting [5]) it was less than 10 nM; at EGFR LRCS (L858R/C797S) (setting [6]) it was 100 to 1000 nM; at EGFR LRCS (L858R/C797S) (setting [7]), less than 10 nM. Besides, the IC50 at EGFR D19CS (del19/C797S) (setting [8]) was 10 to 100 nM; on EGFR D19CS (del19/C797S) (setting [9]), 10 to 100 nM; in test [2] (setting [10]) it was less than 10 nM; in test [2] (setting [11]), less than 10 nM.
For `Cc1nn(C)c2c1-c1nccc(n1)Nc1cc(c(-c3ncc(CN4CC(C(C)(C)O)C4)cc3F)cn1)N[C@@H](C)CCO2`, the IC50 was greater than 1000 nM at EGFR WT (setting [12]); 10 to 100 nM on EGFR WT (setting [13]); less than 10 nM in test [1] (setting [14]); 10 to 100 nM at EGFR LRCS (L858R/C797S) (setting [15]); less than 10 nM on EGFR LRCS (L858R/C797S) (setting [16]); less than 10 nM at EGFR D19CS (del19/C797S) (setting [17]). Also, the IC50 (at EGFR D19CS (del19/C797S) (setting [18]); in test [2] (setting [19]); in test [2] (setting [20])) was less than 10 nM throughout.
On to `Cc1nn(C)c2c1-c1nccc(n1)Nc1cc(c(-c3cc(OC(F)F)ccn3)cn1)N[C@@H](C)CCO2`, for which the IC50 at EGFR WT (setting [3]) is greater than 1000 nM; at EGFR WT (read-out: EGFR WT IC50, ATP Km), 10 to 100 nM; in test [1] (setting [4]), less than 10 nM; in test [1] (setting [5]), less than 10 nM; on EGFR LRCS (L858R/C797S) (setting [6]), greater than 1000 nM; at EGFR LRCS (L858R/C797S) (setting [7]), less than 10 nM. Moreover, the IC50 was 10 to 100 nM on EGFR D19CS (del19/C797S) (setting [8]), less than 10 nM on EGFR D19CS (del19/C797S) (setting [9]), less than 10 nM in test [2] (setting [10]) and less than 10 nM in test [2] (setting [11]).
